Measurements taken from patent US5618915.

Columns and labels:
[1] = molecular target: human plasma kallikrein (human) (UniProt P03952); assay: inhibition of amidolytic activity (substrate S2302), graphical Dixon method
[2] = molecular target: recombinant human protein Ca (human) (UniProt P04070); assay: inhibition of amidolytic activity (substrate S2366), graphical Dixon method
[3] = molecular target: recombinant human protein Ca (human) (UniProt P04070)
[4] = molecular target: bovine factor Xa (bovine) (UniProt P00743); assay: inhibition of amidolytic activity (substrate FXa-1), graphical Dixon method
[5] = molecular target: bovine factor Xa (bovine) (UniProt P00743)
[6] = molecular target: human plasma kallikrein (human) (UniProt P03952); assay: inhibition of amidolytic activity (substrate S2302)

native, bovine pancreatic aprotinin (1-58)
Ki [1]: 180 nM | Ki [2]: 400 nM | Ki (nM); amidolytic activity of protein Ca (substrate S2366) [3]: 400 nM

aprotinin (3-58; 15 Arg+42 Ser)
Ki [4]: 1800 nM | Ki [1]: 1 nM | Ki [2]: 10 nM | Ki (nM); amidolytic activity of FXa (substrate FXa-1) [5]: 1800 nM

aprotinin (3-58; 15 Arg+17 Ala+42 Ser)
Ki [4]: 150 nM | Ki [1]: 0.1 nM | Ki [2]: 100 nM | Ki (nM); amidolytic activity of FXa (substrate FXa-1) [5]: 150 nM | fold stronger inhibition than the Arg 15 analogue (KFN 772) [6]: 10 fold
